Results on one compound are retold here after US9416347B2, “Method of treating bacterial contamination in a microalgae culture with pH shock” (Heliae Development LLC, priority 2014, dated 2016).

The structures appear in SMILES notation. Where two headings read alike, the source gives them in different places.

This assay concerns bacteria in Chlorella sp. culture. As to conditions: pH lowered from about 7.5 to 3.5 for 15 minutes.

`CC(=O)O` [Acetic acid, acetic acid]: the “Bacteria to Algae Ratio (Guava Flow Cytometry)” value is, setting by setting: (0 h) 0.19 ± 0.02; (72 h) 0.18 ± 0.01.
